pIC50: −log10 of the molar value.

The chains behind the UniProt entries cited, without tags or fusion partners.
UniProt P21452, whole entry: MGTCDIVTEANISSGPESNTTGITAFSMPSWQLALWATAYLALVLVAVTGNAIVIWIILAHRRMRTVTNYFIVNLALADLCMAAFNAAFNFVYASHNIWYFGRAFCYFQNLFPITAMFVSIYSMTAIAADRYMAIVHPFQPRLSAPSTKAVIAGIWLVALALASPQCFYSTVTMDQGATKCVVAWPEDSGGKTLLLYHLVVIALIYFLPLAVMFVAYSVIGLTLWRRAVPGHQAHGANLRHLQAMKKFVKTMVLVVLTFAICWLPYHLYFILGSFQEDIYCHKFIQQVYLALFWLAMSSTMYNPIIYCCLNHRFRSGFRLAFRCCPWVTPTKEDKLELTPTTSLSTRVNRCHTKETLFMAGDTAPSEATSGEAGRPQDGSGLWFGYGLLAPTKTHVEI

This assay deals with human NK2 receptor (Homo sapiens, UniProt P21452). Kind of assay: Neurokinin A (NKA) Receptor Binding Assay (Test B). Conditions: versus 3H-NKA binding to MEL-membranes; initial use of assay, standard compound. From the text:
Neurokinin A (NKA) Receptor Binding Assay (Test B)
The selectivity of a Compound for binding at the NK1 and the NK2 receptors may be shown by determining its binding at other receptors using standard assays, for example, one using a tritiated derivative of NKB in a tissue preparation selective for NK3 receptors.

`CSCC[C@@H]1NC(=O)[C@H](CC(C)C)NC(=O)CNC(=O)[C@H](Cc2ccccc2)NC(=O)[C@H](Cc2c[nH]c3ccccc23)NC(=O)[C@H](CCC(N)=O)NC1=O`: the pIC50 was 7.52.

For the origin of these results see patent US6090824A, “Therapeutic neurokinin receptor antagonist compounds” (Zeneca Limited, priority 1995, dated 2000).
